Reference: US20250304643A1, “PEPTIDE DUAL AGONISTS OF GIPR AND GLP2R” (BAINAN BIOTECH APS, priority 2021, published 2025)
Like-named read-outs stand apart in the source and are kept apart here.

The chains behind the UniProt entries cited, without tags or fusion partners. Residues count along the entry.
UniProt P43220, 24-463: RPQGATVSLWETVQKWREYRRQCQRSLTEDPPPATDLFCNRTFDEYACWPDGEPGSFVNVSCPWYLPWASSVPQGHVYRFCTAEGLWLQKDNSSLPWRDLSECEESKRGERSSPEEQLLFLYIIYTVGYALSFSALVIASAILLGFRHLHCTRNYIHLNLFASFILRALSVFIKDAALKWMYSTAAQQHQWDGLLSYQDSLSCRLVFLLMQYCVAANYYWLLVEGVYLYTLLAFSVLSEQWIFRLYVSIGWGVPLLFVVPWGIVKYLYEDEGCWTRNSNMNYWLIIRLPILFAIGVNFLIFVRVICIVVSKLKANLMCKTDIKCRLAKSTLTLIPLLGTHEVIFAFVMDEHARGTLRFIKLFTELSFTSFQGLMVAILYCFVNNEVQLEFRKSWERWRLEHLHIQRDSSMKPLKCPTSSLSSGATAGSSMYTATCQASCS

Legend:
Type in all cases: cell-based
[1] = biological target: T1, human GLP-2R (Homo sapiens, UniProt O95838); assay: HitHunter cAMP assay in transiently transfected COS-7 cells, human GLP-2R;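 further: cells kept 30 min at 37 °C in buffer with 1 mM IBMX, then given ligand for another 30 min at 37 °C before cAMP readout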
T1 construct: host or cells: COS-7
T1 sequence (O95838 1-553): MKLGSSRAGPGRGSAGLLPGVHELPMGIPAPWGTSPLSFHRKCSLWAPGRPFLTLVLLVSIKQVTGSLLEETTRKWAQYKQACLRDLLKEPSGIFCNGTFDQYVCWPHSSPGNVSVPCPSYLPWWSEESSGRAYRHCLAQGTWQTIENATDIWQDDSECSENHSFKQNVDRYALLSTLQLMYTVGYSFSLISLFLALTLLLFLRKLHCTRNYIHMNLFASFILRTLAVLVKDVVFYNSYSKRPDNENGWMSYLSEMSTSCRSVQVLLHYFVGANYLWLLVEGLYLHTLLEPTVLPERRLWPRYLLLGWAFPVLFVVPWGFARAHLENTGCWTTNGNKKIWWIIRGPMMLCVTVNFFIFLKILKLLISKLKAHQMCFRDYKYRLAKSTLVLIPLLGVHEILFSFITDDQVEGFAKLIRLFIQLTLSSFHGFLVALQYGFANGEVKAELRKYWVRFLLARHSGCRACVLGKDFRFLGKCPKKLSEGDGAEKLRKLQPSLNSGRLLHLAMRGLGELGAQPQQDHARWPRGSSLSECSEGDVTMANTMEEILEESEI

[2] = biological target: T2, human GLP-1R (Homo sapiens, UniProt P43220); assay: HitHunter cAMP assay in transiently transfected COS-7 cells, human GLP-1R
T2 construct: host or cells: COS-7
Protocol: (§1) The next day the assay was initiated by washing with HEPES buffered saline (HBS) and followed by an incubation step with assay buffer (HBS added 1 mM isobutyl-1-methylxanthine (IBMX)) for 30 min at 37° C. The ligands were then added and incubated for an additional 30 min at 37° C. After ligand incubation, the HitHunter® CAMP assay (Eurofins DiscoverX, Fremont, […] USA) was carried out according to the manufacturer's instructions. Luminescence was measured by PerkinElmer™ EnVision 2014 Multilabel Reader (PerkinElmer, Waltham, MA). The potencies (EC50 values) were determined by nonlinear regression using GraphPad Prism 9 (San Diego, California, USA). Sigmoid curves were fitted logistically. The efficacies (Emax values) were determined by normalization to the highest concentration applied of the endogenous ligand for each receptor.

[3] = biological target: T3, rat GIPR (Rattus norvegicus, UniProt P43219); assay: HitHunter cAMP assay in transiently transfected COS-7 cells, rat GIPR; settings: COS-7 cells expressing rat GIPR
T3 construct: expressed in transfected cells; host or cells: COS-7
T3 sequence (P43219 19-455): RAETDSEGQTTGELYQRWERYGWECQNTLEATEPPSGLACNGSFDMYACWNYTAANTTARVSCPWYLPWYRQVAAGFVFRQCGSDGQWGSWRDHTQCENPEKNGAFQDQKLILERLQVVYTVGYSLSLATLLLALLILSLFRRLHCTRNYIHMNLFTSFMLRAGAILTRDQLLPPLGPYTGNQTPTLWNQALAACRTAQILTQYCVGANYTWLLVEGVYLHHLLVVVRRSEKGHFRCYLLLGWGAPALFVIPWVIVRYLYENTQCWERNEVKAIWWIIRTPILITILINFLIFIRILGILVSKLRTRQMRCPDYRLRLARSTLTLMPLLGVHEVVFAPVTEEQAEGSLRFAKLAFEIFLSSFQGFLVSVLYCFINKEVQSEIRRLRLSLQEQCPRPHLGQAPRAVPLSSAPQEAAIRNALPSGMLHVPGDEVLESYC
Protocol: as §1

[4] = biological target: T4, rat GLP-2R (Rattus norvegicus, UniProt Q9Z0W0); assay: HitHunter cAMP assay in transiently transfected COS-7 cells, rat GLP-2R; settings: COS-7 cells expressing rat GLP-2R
T4 construct: expressed in transfected cells; host or cells: COS-7
T4 sequence (Q9Z0W0 1-550): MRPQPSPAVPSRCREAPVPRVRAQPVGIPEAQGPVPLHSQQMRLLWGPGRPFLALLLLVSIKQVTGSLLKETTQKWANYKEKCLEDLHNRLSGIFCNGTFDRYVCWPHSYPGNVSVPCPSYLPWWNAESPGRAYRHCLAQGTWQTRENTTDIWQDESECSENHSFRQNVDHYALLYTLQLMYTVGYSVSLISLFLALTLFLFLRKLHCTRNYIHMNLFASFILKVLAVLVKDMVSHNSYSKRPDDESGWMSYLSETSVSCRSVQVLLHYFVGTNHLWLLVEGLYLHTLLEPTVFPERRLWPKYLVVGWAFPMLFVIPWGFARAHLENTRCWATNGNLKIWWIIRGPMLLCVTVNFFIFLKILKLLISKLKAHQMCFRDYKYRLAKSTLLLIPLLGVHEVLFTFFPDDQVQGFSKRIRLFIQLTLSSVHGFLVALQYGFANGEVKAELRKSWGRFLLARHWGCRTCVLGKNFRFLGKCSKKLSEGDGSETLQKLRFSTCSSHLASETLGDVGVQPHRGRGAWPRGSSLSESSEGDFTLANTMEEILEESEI
Protocol: as §1

[5] = biological target: T5, human GIPR (Homo sapiens, UniProt P48546); parameters: host or cells: COS-7
T5 sequence (P48546 22-466): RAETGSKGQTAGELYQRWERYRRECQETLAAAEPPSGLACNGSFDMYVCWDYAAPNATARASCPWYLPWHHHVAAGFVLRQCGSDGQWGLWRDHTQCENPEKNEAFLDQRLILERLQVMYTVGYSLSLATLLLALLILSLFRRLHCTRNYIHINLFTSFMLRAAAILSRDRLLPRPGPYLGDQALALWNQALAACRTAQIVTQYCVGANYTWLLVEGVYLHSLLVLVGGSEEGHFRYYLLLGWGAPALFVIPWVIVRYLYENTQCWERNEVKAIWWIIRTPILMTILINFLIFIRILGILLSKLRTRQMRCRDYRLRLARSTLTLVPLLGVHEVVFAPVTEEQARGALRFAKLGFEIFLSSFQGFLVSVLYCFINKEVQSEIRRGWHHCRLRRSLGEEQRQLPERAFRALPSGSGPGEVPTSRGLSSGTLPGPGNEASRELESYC
Protocol: as §1

[6] = cAMP, COS-7 cells expressing human GLP-2R, Table 2
[7] = cAMP, COS-7 cells expressing human GLP-1R, Table 3
[8] = cAMP, COS-7 cells expressing human GIPR, Table 2
[9] = comparative peptides, human GLP-2R, Table B
[10] = comparative peptides, human GLP-1R, Table C
[11] = comparative peptides, human GIPR, Table 4A

Substance | EC50 [1, 6] [nM] | logEC50 GLP-2R [1, 6] | EC50 [2, 7] [nM] | logEC50 GLP-1R [2, 7] | rGIPR pEC50 [3] | rGLP-2R pEC50 [4] | EC50 [5, 8] [nM] | PEC50 GIPR [5, 8] | EC50 [1, 9] [nM] | logEC50 GLP-2R [1, 9] | EC50 [2, 10] [nM] | logEC50 GLP-1R [2, 10] | EC50 [5, 11] [nM] | pEC50 GIPR [5, 11]
(C10)H-Aib-DGTFISDYST-Aib-LDNLAARDFINWLIQTKITK-OH [Compound no. 44] | 2.9 | 8.5 | 18.5 | 7.7 | 8.4 | 8.1 | 1.07 | 9.0 | – | – | – | – | – | –
(C16)HADGTFISDYSTAibLDNLAARDFINWLIQTKITKNDWKHNITQ [Compound no. 53] | – | – | – | no activation | 8.7 | 7.5 | 0.316 | 9.5 | – | – | – | – | – | –
(C16-diacid)H-Aib-EGTFISDYST-Aib-LDNLAARDFINWLIQTKITK-OH [Compound no. 19] | 2.8 | 8.6 | – | no activation | – | – | 0.708 | 9.2 | – | – | – | – | – | –
(C16-diacid)HADGTFISDYSTAibLDNLAARDFINWLIQTKITKNDWKHNITQ [Compound no. 39] | 1 | 9.0 | – | no activation | – | – | 1.78 | 8.8 | – | – | – | – | – | –
Ac-H-Aib-DGTFISDY-K(γGlu-C16)-T-Aib-LDNLAARDFINWLIQTKITK-OH [Compound no. 34] | 14.1 | 7.9 | – | no activation | – | – | 10 | 8.0 | – | – | – | – | – | –
Ac-H-Aib-DGTFISDY-K(γGlu-C16)-T-Aib-LDNLAARDFINWLIQTKITKNDWKHNITQ-OH [Compound no. 38] | 3.5 | 8.5 | – | no activation | – | – | 3.55 | 8.5 | – | – | – | – | – | –
H-Aib-DG-K(γGlu- γGlu-C10)-FISDYSTILDNLAARDFINWLIQTKITK-OH [Compound no. 26] | 6.3 | 8.2 | – | no activation | – | – | 3.16 | 8.5 | – | – | – | – | – | –
H-Aib-DG-K(γGlu-C16)-FISDYSTILDNLAARDFINWLIQTKITK-OH [Compound no. 9] | 2.5 | 8.6 | 70.8 | 7.2 | 9.5 | 7.9 | 0.141 | 9.9 | – | – | – | – | – | –
H-Aib-DGTF-K(γGlu-C16)-SDYSTILDNLAARDFINWLIQTKITK-OH [Compound no. 10] | 31.6 | 7.5 | 100 | 7.0 | – | – | 1.26 | 8.9 | – | – | – | – | – | –
H-Aib-DGTFISDY-K(yglu-C10)-T-Aib-LDNLAARDFINWLIQTKITGNDWKHNITQ-OH [Compound no. 54] | 1.3 | 8.9 | 39.8 | 7.4 | 7.5 | – | 1.17 | 8.9 | – | – | – | – | – | –
H-Aib-DGTFISDY-K(γGlu-C10)-TILDKLAARDFIEWLIATKITK-OH [Compound no. 31] | 3.7 | 8.4 | 39.8 | 7.4 | 8.5 | 8.9 | 0.398 | 9.4 | – | – | – | – | – | –
H-Aib-DGTFISDY-K(γGlu-C16)-T-Aib-LDNLAARDFINWLIQTKITK-OH [Compound no. 29] | 2.3 | 8.6 | – | no activation | – | – | 0.926 | 9.0 | – | – | – | – | – | –
H-Aib-DGTFISDY-K(γGlu-C16)-TILDNLAARDFINWLIETKITK-OH [Compound no. 32] | 10 | 8.0 | – | no activation | – | – | 0.341 | 9.5 | – | – | – | – | – | –
H-Aib-DGTFISDY-K(γGlu-C16)-TILDNLAARDFINWLIQTKGKKNDWKHNITQ-NH2 [Compound no. 14] | 3.5 | 8.5 | – | no activation | 8.8 | 8.4 | 0.266 | 9.6 | – | – | – | – | – | –
H-Aib-DGTFISDY-K(γGlu-C16)-TILDNLAARDFINWLIQTKITK-OH [Compound no. 11] | – | – | – | – | 8.6 | 8.4 | – | – | – | – | – | – | – | –
H-Aib-DGTFISDYSTIL-K(γGlu-C16)-NLAARDFINWLIQTKITK-OH [Compound no. 13] | 6.3 | 8.2 | – | no activation | 7.5 | 8.1 | 0.794 | 9.1 | – | – | – | – | – | –
H-Aib-EG-K(γGlu-C16)-FISDYST-Aib-LDNLAARDFINWLIQTKITK-OH [Compound no. 27] | 7.9 | 8.1 | – | no activation | – | – | 1.78 | 8.8 | – | – | – | – | – | –
HADGTFISDYSTAibLDK(γGlu-C18-diacid) LAARDFINWLIQTKGKK [Compound no. 62, reference compound] | – | – | – | – | – | – | – | – | 1.1 | 9.0 | 1.26 | 8.9 | 0.147 | 9.8
HADGTFISDYSTAibLDNLAARDFINWLIQTKGKKK(γGlu-C18-diacid) [Compound no. 61, reference compound] | – | – | – | – | – | – | – | – | 20 | 7.7 | 7.08 | 8.2 | 0.355 | 9.5
HADGTFISDYSTILDK(γGlu-C18-diacid) LAARDFINWLIQTKGKK [Compound no. 64, reference compound] | – | – | – | – | – | – | – | – | 1.5 | 8.8 | 0.54 | 9.3 | 0.074 | 10.1
